US20250134865A1, “METHODS OF WEIGHT LOSS IN A SUBJECT WITH ELEVATED HBA1C” (published 2025)

Key:
[1] = system: subjects with nonalcoholic fatty liver disease (NAFLD), elevated liver fat (>8%), and elevated body mass index (BMI); assay: Phase 2a trial: liver fat content by MRI-PDFF; details: for Responder (>30% liver fat reduction by MRI-PDFF), share of subjects / Relative reduction in liver fat: Day 61; for Relative reduction in liver fat: overall; for placebo-corrected mean percent change from baseline in liver fat (MRI-PDFF): range across doses
[2] = system: inflammatory and metabolic markers; assay: Phase 2a trial: inflammatory and metabolic markers; details: 61-day study
[3] = Phase 2a trial: body fat compartments by MRI; details: 61-day study
[4] = system: subjects with nonalcoholic fatty liver disease (NAFLD), elevated liver fat (>8%), and elevated body mass index (BMI); assay: Phase 2a trial: ELF; details: overall population
[5] = system: subjects with nonalcoholic fatty liver disease (NAFLD), elevated liver fat (>8%), and elevated body mass index (BMI); assay: Phase 2a trial: VCTE (liver stiffness)
[6] = system: subjects with nonalcoholic fatty liver disease (NAFLD), elevated liver fat (>8%), and elevated body mass index (BMI); assay: Phase 2a trial: FAST score (Fibroscan and AST)
[7] = Phase 2a trial: InBody body fat mass; details: Day 61
[8] = Phase 2a trial: InBody lean body mass / skeletal muscle mass; details: 450 mg; Day 61; compared with placebo
[9] = 450 mg, HbA1c 5.7% to 9.0% subgroup
[10] = 450 mg, HbA1c 5.7%-9.0% subgroup
[11] = 150 mg, HbA1c 5.7%-9.0% subgroup
[12] = 300 mg, HbA1c 5.7%-9.0% subgroup

Cn1c(COc2ccc([N+](=O)[O-])cc2[N+](=O)[O-])cnc1[N+](=O)[O-]
Non-responder (MRI-PDFF), share of subjects ([1]; 450 mg, FAS population): 5 (27.8%) | Responder (>30% liver fat reduction by MRI-PDFF), share of subjects ([1]; 450 mg, FAS population): 72% | Responder (>30% liver fat reduction by MRI-PDFF), share of subjects ([1]; 450 mg, FAS population, listed as CM1): 13 (72.2%) | MRI-Proton Density Fat Fraction at Day 61, Mean [1, 9]: 10.7% | MRI-Proton Density Fat Fraction at Day 61, Median [1, 9]: 8.8% | MRI-Proton Density Fat Fraction, Day 61-Baseline, LS Mean [1, 9]: −6.97% | MRI-Proton Density Fat Fraction, Day 61-Baseline, Mean [1, 9]: −6.5% | MRI-Proton Density Fat Fraction, Day 61-Baseline, Median [1, 9]: −4.7% | MRI-PDFF change from baseline at Day 61, Difference of LS Mean and Placebo [1, 10]: −7.45 | MRI-PDFF mean change from baseline at Day 61, LS Mean (ANCOVA) [1, 10]: −6.97 | MRI-PDFF percent change from baseline to Day 61, Median [1, 10]: −43.100% | Non-responder (MRI-PDFF), share of subjects [1, 10]: 1 (14.3%) | Responder (>30% liver fat reduction by MRI-PDFF), share of subjects [1, 10]: 86% | Responder (>30% liver fat reduction by MRI-PDFF), share of subjects ([1]; 450 mg, HbA1c 5.7%-9.0% subgroup, listed as CM1): 6 (85.7%) | MRI-Proton Density Fat Fraction at Day 61, Mean ([1]; 450 mg, all subjects): 11.2% | MRI-Proton Density Fat Fraction at Day 61, Median ([1]; 450 mg, all subjects): 8.8% | MRI-Proton Density Fat Fraction, Day 61-Baseline, LS Mean ([1]; 450 mg, all subjects): −6.03% | MRI-Proton Density Fat Fraction, Day 61-Baseline, Mean ([1]; 450 mg, all subjects): −6.0% | MRI-Proton Density Fat Fraction, Day 61-Baseline, Median ([1]; 450 mg, all subjects): −5.1% | Non-responder (MRI-PDFF), share of subjects ([1]; All CM1 doses, FAS population): 20 (33.9%) | Non-responder (MRI-PDFF), share of subjects ([1]; All CM1 doses, HbA1c 5.7%-9.0% subgroup): 5 (22.74%) | Relative reduction in liver fat ([1]; high dose (450 mg)): 40% | Relative reduction in liver fat ([1]; low dose (150 mg)): 33% | Relative reduction in liver fat ([1]; mid dose (300 mg)): 43% | placebo-corrected mean percent change from baseline in liver fat (MRI-PDFF) ([1]; subgroup with elevated HbA1c): −42% to −50 | placebo-corrected mean percent change from baseline in liver fat (MRI-PDFF) ([1]; subjects overall): −33% to 43 and −33% to −43 | inflammatory and metabolic markers [2]: Significant reductions | Fat loss by compartment by MRI [3]: Fat loss was observed in hepatic, visceral, and subcutaneous compartments | ELF, LS mean change at day 61 ([4]; 150 mg): 0.41 | ELF, LS mean change at day 61 ([4]; 300 mg): 0.35 | ELF, LS mean change at day 61 ([4]; 450 mg): 0.51 | VCTE, LS mean change at day 61 ([5]; 150 mg, HbA1c subgroup): −1.27 kPa | VCTE, LS mean change at day 61 ([5]; 150 mg, overall population): −.146 kPa | VCTE, LS mean change at day 61 ([5]; 300 mg, HbA1c subgroup): −2.84 kPa | VCTE, LS mean change at day 61 ([5]; 300 mg, overall population): −2.09 kPa | VCTE, LS mean change at day 61 ([5]; 450 mg, HbA1c subgroup): −0.66 kPa | VCTE, LS mean change at day 61 ([5]; 450 mg, overall population): −1.35 kPa | FAST, LS mean change at day 61 ([6]; 150 mg, HbA1c subgroup): −0.55 | FAST, LS mean change at day 61 ([6]; 150 mg, overall population): −0.37 | FAST, LS mean change at day 61 ([6]; 300 mg, HbA1c subgroup): −0.69 | FAST, LS mean change at day 61 ([6]; 300 mg, overall population): −0.319 | FAST, LS mean change at day 61 ([6]; 450 mg, HbA1c subgroup): 0.11 | FAST, LS mean change at day 61 ([6]; 450 mg, overall population): 0.055 | Body Fat Mass mean change from baseline, LS Mean (SEM) ([7]; 150 mg, FAS population): −0.42 (1.004) lbs | Body Fat Mass, Difference of LS Mean and Placebo (SEM) ([7]; 150 mg, FAS population): −1.03 (1.425) lbs | Body Fat Mass mean change from baseline, LS Mean (SEM) [7, 11]: −1.78 (1.828) lbs | Body Fat Mass, Difference of LS Mean and Placebo (SEM) [7, 11]: −3.32 (2.562) lbs | Body Fat Mass mean change from baseline, LS Mean (SEM) ([7]; 300 mg, FAS population): −3.23 (0.961) lbs | Body Fat Mass, Difference of LS Mean and Placebo (SEM) ([7]; 300 mg, FAS population): −3.84 (1.395) lbs | Body Fat Mass mean change from baseline, LS Mean (SEM) [7, 12]: −3.36 (1.703) lbs | Body Fat Mass, Difference of LS Mean and Placebo (SEM) [7, 12]: −4.90 (2.472) lbs | Body Fat Mass mean change from baseline, LS Mean (SEM) ([7]; 450 mg, FAS population): −5.34 (1.014) lbs | Body Fat Mass, Difference of LS Mean and Placebo (SEM) ([7]; 450 mg, FAS population): −5.95 (1.434) lbs | Body Fat Mass mean change from baseline, LS Mean (SEM) [7, 10]: −9.02 (1.696) lbs | Body Fat Mass, Difference of LS Mean and Placebo (SEM) [7, 10]: −10.57 (2.469) lbs | skeletal muscle mass (and lean body mass and dry lean mass) [8]: remained unchanged

Values joined by “and” are separate entries in the source; they are usually repeats but may differ in a detail not shown here. Identical values can stand only once.
